For three compounds, AC50 results are on record in ChEMBL document CHEMBL5291721, “A preclinical secondary pharmacology resource illuminates target-adverse drug reaction associations of marketed drugs” (Nat Commun, 2023).

Protein sequences, listed by entry. Tags and fused reporters are not part of them.
UniProt Q01827, whole entry: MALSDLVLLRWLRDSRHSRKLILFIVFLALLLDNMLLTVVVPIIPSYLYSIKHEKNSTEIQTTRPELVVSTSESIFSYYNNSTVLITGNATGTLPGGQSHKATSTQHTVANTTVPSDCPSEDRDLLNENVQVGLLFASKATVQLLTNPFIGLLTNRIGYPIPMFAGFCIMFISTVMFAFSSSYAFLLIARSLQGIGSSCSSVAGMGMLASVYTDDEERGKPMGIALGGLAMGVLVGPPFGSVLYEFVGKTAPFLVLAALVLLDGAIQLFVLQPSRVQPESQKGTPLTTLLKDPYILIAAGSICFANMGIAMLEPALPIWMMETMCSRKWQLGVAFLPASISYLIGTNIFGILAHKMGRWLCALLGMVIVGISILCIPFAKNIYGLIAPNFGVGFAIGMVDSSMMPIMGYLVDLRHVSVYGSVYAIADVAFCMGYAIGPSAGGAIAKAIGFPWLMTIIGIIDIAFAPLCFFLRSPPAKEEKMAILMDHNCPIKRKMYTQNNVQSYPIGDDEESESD
UniProt P35367, whole entry: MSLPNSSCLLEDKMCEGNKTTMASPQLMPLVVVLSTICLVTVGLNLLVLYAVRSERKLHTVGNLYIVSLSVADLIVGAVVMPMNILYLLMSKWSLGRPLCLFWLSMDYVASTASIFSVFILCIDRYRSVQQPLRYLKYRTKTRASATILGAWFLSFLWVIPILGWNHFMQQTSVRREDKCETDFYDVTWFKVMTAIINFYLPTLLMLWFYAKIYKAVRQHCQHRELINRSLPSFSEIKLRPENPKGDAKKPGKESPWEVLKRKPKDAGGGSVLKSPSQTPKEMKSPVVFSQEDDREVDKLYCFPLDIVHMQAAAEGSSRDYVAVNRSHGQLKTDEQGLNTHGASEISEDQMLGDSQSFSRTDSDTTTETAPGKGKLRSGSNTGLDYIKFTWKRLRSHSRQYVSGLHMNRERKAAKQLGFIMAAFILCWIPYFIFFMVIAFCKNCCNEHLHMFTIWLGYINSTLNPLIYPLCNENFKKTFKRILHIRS
UniProt P08172, whole entry: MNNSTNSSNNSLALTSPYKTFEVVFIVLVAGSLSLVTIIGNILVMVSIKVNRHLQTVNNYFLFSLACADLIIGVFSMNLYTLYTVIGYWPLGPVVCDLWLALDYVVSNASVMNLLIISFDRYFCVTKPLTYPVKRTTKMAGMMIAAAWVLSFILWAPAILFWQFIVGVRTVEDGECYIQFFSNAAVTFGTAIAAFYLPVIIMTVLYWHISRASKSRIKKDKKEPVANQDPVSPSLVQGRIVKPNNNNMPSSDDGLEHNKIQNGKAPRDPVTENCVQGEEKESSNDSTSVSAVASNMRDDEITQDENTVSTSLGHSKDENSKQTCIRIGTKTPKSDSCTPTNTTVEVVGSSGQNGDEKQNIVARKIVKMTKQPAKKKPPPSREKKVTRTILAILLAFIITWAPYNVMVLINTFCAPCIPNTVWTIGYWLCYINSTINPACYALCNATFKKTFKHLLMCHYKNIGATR

Assay [1] has as its target Synaptic vesicular amine transporter (Rattus norvegicus, UniProt Q01827). Format: functional.
The target in the next assay is Histamine H1 receptor (Homo sapiens, UniProt P35367).
Assay [2] addresses T1, Muscarinic acetylcholine receptor M2 (Homo sapiens, UniProt P08172). Format: functional, cell-based.
Assay [3] deals with T1, Muscarinic acetylcholine receptor M2.
Also: assay procedure not described here.

As to `COc1cc2c(cc1OC)C1CC(=O)C(CC(C)C)CN1CC2` (centres undefined) [TETRABENAZINE], the AC50 in assay [1] came to 7 nM.

On Histamine H1 receptor, `Cc1ccc(/C(=C\CN2CCCC2)c2cccc(/C=C/C(=O)O)n2)cc1` [ACRIVASTINE] showed an AC50 of 170 nM.

Consider `CN1[C@@H]2C[C@@H](OC(=O)[C@H](CO)c3ccccc3)C[C@H]1[C@@H]1O[C@@H]12` [SCOPOLAMINE], for which the values for the AC50 in assay [2] and in assay [3] were > 30000 nM and 0.7 nM, respectively.
